# Results as given in patent US8067461B2, “3-acyl coumarins, thiochromones and quinolones and therapeutic uses thereof” (Temple University-Of The Commonwealth System of Higher …, priority 2005, dated 2011).
# Sequences of proteins named here, by UniProt entry; tags and fusion partners are left off. A change or cut given only in a name is not applied to a line headed by its entry.
# UniProt P11802: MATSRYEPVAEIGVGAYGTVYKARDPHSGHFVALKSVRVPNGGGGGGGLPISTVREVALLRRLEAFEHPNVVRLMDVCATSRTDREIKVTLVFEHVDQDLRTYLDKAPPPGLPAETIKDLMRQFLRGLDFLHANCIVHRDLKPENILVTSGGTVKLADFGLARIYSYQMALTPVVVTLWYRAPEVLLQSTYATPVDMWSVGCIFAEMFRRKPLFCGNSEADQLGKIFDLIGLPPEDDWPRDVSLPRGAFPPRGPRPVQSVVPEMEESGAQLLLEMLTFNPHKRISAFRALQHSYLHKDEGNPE
# Biological target: CDK4/CyclinD1 (Homo sapiens, UniProt P11802)
# Experiment: In vitro kinase assay CDK4/CyclinD1, 32P incorporation into GST-Rb
# Conditions: read-out: CDK4 IC50; recombinant human enzyme complex, average of two independent experiments in triplicate
smiles,measurement,value
O=C(c1cc2cc([N+](=O)[O-])cc([N+](=O)[O-])c2oc1=O)c1cc2cc([N+](=O)[O-])cc([N+](=O)[O-])c2oc1=O,IC50,> 10 µM
